Consider one substance from US20020012620A1, “BACTERIAL LEACHING OF COPPER AND ZINC WITHOUT IRON LEACHING” (priority 1998, published 2002).

The test system of this assay is T. ferrooxidans. It is filed as cell-based, Thiobacillus ferrooxidans. On the procedure:
Bacterial leaching was performed in shake flask experiments with 250 ml Erlenmeyer™ flasks containing 95 ml of HP medium with and without inhibitors unless otherwise specified, 4 ml of inoculum (Fe^2+-grown T. ferrooxidans, S^0-grown T. thiooxidans or both) and 5 g of floatation tailings supplied by Cominco Research were used, as described below. The flasks were grown at 26° C. on a rotary shaker at 150 rpm for 14 days. At various time intervals, 5 ml samples were taken to determine the concentrations of dissolved zinc and iron in the leachate as well as the percentage of zinc and iron remaining in the precipitate (after filtration of the leachate).

potassium chloride: the “effect on Zn selectivity” value was “little effect”.
